# AlphaSeq binding of Ab-14 light chain variants to a spike HR2 peptide

Binding partner: SARS-CoV-2 spike HR2 peptide, sequence PDVDLGDISGINAS.

Parent scFv Ab-14: VH joined to VL by three GGGGS repeats. Changes lie in the light chain CDRs alone.
VH: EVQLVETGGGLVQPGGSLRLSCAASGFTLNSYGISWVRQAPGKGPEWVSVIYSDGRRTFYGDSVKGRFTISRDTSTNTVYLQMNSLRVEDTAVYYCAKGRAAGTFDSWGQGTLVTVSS
VL: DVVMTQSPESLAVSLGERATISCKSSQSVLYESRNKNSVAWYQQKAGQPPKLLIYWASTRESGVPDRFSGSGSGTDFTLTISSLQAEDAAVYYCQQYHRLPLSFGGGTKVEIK

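The starting antibody came from a phage panning campaign against this peptide. The variants were designed computationally from a first round of random CDR variants and then made and measured. Their group label is 14L_GP_Gen (GP: Gaussian process model; Gen: genetic algorithm; a sequence that several methods proposed may carry one label only). The assay is AlphaSeq: two haploid yeast populations carry antibody and antigen on their surface. Pairs that bind mate more often; barcode pairs of the diploids are counted by sequencing. Each replicate has its own calibration line, from reference interactions of the BCL2 family. Mating was done six times.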

The parent's light chain CDRs are KSSQSVLYESRNKNSVA, WASTRES, QQYHRLPLS; each variant's own CDRs replace them letter for letter.
Scale: log10 of Kd in nM, estimated from mating counts; low values are strong binders.
"n.d." means that the variant was in the library but no mating with the target was seen in that replicate; the authors take this as a sign of poor binding, and no number exists.
A sequence measured in both rounds can read differently, since the two assays cover different ranges.

CDR-L1,CDR-L2,CDR-L3,"log10 Kd, replicates",signal with controls
KMSQSVGYESRNKNSVA,DASTRES,QQYHRLPLS,-0.19 -0.28 -0.48 -0.57 -0.42 -0.34,2/18 (2.92)
KLSQSVLYESRNKNSVA,QASTRSS,QQYHRLPLS,-0.10 -0.19 -0.11 -0.34 -0.17 -0.01,2/18 (2.99)
KISQSVLYEDRNKNSVA,NASTRMS,QQYHRLPLS,-0.07 0.13 0.01 -0.15 0.08 0.12,2/18 (2.63)
KLPQSTLYESRNKNSVA,QASTRES,QQYHRLPLS,0.18 0.76 0.21 0.39 0.52 0.41,0/18
KLSQSVLYEDRNKNSVA,NASQREM,QQYHRLPLS,0.12 -0.15 -0.12 0.01 -0.41 0.02,0/18
KLSQSQLYESRNKNSVA,NASLRES,QQYHRLPLS,-0.10 -0.30 -0.43 -0.45 -0.46 -0.18,1/18 (3.37)
KFSQSVLYESRNKNSVA,EASTREE,QQYHRLPLS,n.d. n.d. n.d. n.d. n.d. n.d.,0/18
KLSQSVLYEERNKNSVA,NASQRLS,QQYHRLPLS,0.01 -0.04 -0.19 -0.11 -0.27 0.06,2/18 (2.16)
KLSQSMLYESRNKNSVA,NASTRLS,QQYHRLPLS,0.05 -0.08 -0.23 -0.39 0.01 -0.04,0/18
KSSQSFLYESRNKNSVA,EASTRES,QQYHRLPLS,0.23 0.23 0.03 -0.08 0.25 0.08,1/18 (2.31)
KLSQSTLYESRNKNSVA,NASTRED,QQYHRLPLS,1.53 -0.13 -0.26 0.09 -0.10 0.32,0/18
KLSQSWEYESRNKNNVA,NASTRES,QQYHRLPLS,0.05 0.04 -0.32 -0.27 -0.24 -0.09,1/18 (1.42)
KFSQSQLYESRNKNSVA,NASTRMS,QQYHRLPLS,1.04 1.69 1.20 1.70 1.02 1.15,0/18
KVSQSVLYEERNKNSVA,NASTRLS,QQYHRLPLS,0.33 -0.03 0.11 0.02 0.06 0.14,0/18
KLQQSVLYESRNKNSVA,NASTRCS,QQYHRLPLS,0.01 0.02 -0.07 0.20 -0.25 -0.07,0/18
HLSQSELYESRNKNSVA,NASQRES,QQYHRLPLS,-0.27 -0.11 -0.28 -0.27 -0.01 0.05,0/18
ILSQSQLYESRNKNSVA,NASTRES,QQYHRLPLS,0.12 -0.34 -0.53 -0.03 -0.34 -0.16,1/18 (2.08)
KLSQSVLYESRNKNSVA,GASTRES,QQYHRLPLQ,-0.24 -0.42 -0.44 -0.54 -0.51 -0.20,1/18 (2.97)
KLSQSMLYESRNFNSVA,NASTRES,QQYHRLPLS,0.12 -0.28 -0.12 -0.18 -0.26 -0.12,0/18
KLYQSVLYESRNKNSVA,NASYRES,QQYHRLPLS,0.66 0.46 0.33 0.16 0.23 0.83,1/18 (1.85)
KVSQSVLPESRNKNSVA,DASTRES,QQYHRLPLS,0.24 0.13 0.21 0.19 -0.14 0.14,2/18 (2.08)
KLSQSVLYESRNKNSVA,GASTREM,QQYHRLPLS,-0.07 -0.32 -0.32 -0.37 -0.23 -0.20,4/18 (2.47)
KLPQSTLYESRNKNSVA,EASTRES,QQYHRLPLS,-0.10 -0.17 -0.30 -0.25 -0.43 -0.27,0/18
KVSQSHLYESRNWNSVA,NASTRES,QQYHRLPLS,0.62 1.14 0.28 0.33 0.51 0.73,0/18
KLSQSQLYESRNKNSVA,NASTRES,QAYHRLPLS,0.58 0.26 0.25 0.46 0.54 0.50,1/18 (3.28)
KVPQSVPYESRNKNSVA,NASTRES,QQYHRLPLS,-0.03 -0.23 -0.20 -0.15 -0.15 0.01,1/18 (3.94)
KLSQSVLYESRNKNSVA,NANQRES,QQYHRLPLS,-0.26 -0.25 -0.41 -0.32 -0.32 -0.18,2/18 (2.50)
KVSQSMLYESRNKNNVA,DASTRES,QQYHRLPLS,-0.15 -0.19 -0.52 -0.45 -0.53 -0.20,1/18 (0.79)
KVSQSVLYESRNKNSVA,HASTRCS,QQYHRLPLS,0.30 0.08 0.35 0.04 0.01 0.10,1/18 (3.18)
KLMQSWLYESRNKNSVA,NASQRES,QDYHRLPLS,-0.15 0.07 -0.47 -0.21 -0.17 -0.25,0/18
KLSQSDLYESRNKNSVA,DASTRES,QAYHRLPLS,0.56 0.27 0.14 0.06 0.24 0.47,2/18 (3.42)
KLSQSELYEERNKNSVA,NASTRLS,QQYHRLPLS,-0.06 -0.12 -0.16 -0.31 0.09 -0.02,1/18 (1.94)
KLSQSVLYESRNKNSVA,EASTREK,QQYHRLPLS,-0.02 -0.02 0.04 0.00 -0.17 0.10,1/18 (2.71)
KLSQSDLYESRNKMSVA,NASTRES,QQYHRLPLS,-0.27 -0.27 -0.52 -0.42 -0.66 -0.34,0/18
KVSQSVPYESRNKNSVA,EASQRES,QQYHRLPLS,0.12 0.04 -0.09 -0.06 -0.17 0.03,0/18
KLSQSVLYEDRNKNSVA,NASTRMS,QQYHRLPLS,-0.21 -0.35 -0.16 -0.40 -0.31 -0.45,0/18
KLSQSQGYESRNKNNVA,NASTRES,QQYHRLPLS,0.06 -0.07 0.10 0.04 0.01 0.18,0/18
KFSQSWLYESRQKNSVA,NASQRES,QQYHRLPLS,0.14 -0.15 -0.28 -0.30 -0.41 0.12,0/18
KLQQSWLYESRNKNSVA,QASQRES,QQYHRLPLS,0.04 0.03 -0.15 -0.18 0.20 0.14,2/18 (3.39)
KMSQSVLYESRNKNSVA,EGSTRES,QQYHRLPLS,-0.15 -0.16 -0.12 -0.17 -0.21 -0.02,0/18
KLSQSMLYESRQKNSVA,NASTRES,QQYHRLPLS,0.45 1.95 0.51 1.03 1.21 1.84,0/18
KLPQSGLYESRNKNSVA,NASTRLS,QQYHRLPLS,0.11 -0.02 0.07 -0.17 -0.06 0.20,0/18
KLEQSNLYESRNKNSVA,NASQRES,QQYHRLPLS,-0.35 -0.35 -0.43 -0.44 -0.38 -0.31,0/18
KVQQSQLYESRMKNSVA,NASTRES,QQYHRLPLS,0.40 0.22 0.10 0.03 0.22 0.41,1/18 (3.21)
KLSQSVPYESRNKWSVA,NASTRES,QQYHRLPLS,-0.18 -0.25 -0.35 -0.48 -0.35 -0.17,1/18 (2.83)
KLSQSCLYESRNKNSVA,EASTRCS,QQYHRLPLS,0.03 -0.09 -0.16 -0.20 -0.04 0.02,1/18 (1.64)
KLSQSVLYESRQKNSVA,NASTRMS,QQYHRLPLS,-0.34 -0.48 -0.26 -0.24 -0.31 -0.09,0/18
KLPFSVLYESRNKNSVA,EASTRES,QQYHRLPLS,0.28 0.34 0.13 0.25 0.30 0.35,0/18
KFQQSELYESRNKNSVA,NASQRES,QQYHRLPLS,0.08 -0.29 -0.06 -0.42 -0.66 -0.14,1/18 (2.13)
KVSQSELYESRNKNSVA,NASTRCS,QQYHRLPLS,-0.07 -0.16 -0.04 -0.36 -0.26 0.08,0/18
KVSQSVPYEDRNKNSVA,NASTRES,QQYHRLPLS,0.28 0.33 0.24 0.21 0.16 0.39,0/18
KMSQSDLYESRNKNSVA,EASTRES,QQYHRLPLS,0.26 -0.11 0.14 -0.02 -0.02 -0.04,1/18 (3.21)

Picked from the list: the 8 lowest averages where every replicate gave a value.

CDR-L1,CDR-L2,CDR-L3,"log10 Kd, replicates",signal with controls
KLSQSDLYESRNKMSVA,NASTRES,QQYHRLPLS,-0.27 -0.27 -0.52 -0.42 -0.66 -0.34,0/18
KLSQSVLYESRNKNSVA,GASTRES,QQYHRLPLQ,-0.24 -0.42 -0.44 -0.54 -0.51 -0.20,1/18 (2.97)
KMSQSVGYESRNKNSVA,DASTRES,QQYHRLPLS,-0.19 -0.28 -0.48 -0.57 -0.42 -0.34,2/18 (2.92)
KLEQSNLYESRNKNSVA,NASQRES,QQYHRLPLS,-0.35 -0.35 -0.43 -0.44 -0.38 -0.31,0/18
KVSQSMLYESRNKNNVA,DASTRES,QQYHRLPLS,-0.15 -0.19 -0.52 -0.45 -0.53 -0.20,1/18 (0.79)
KLSQSQLYESRNKNSVA,NASLRES,QQYHRLPLS,-0.10 -0.30 -0.43 -0.45 -0.46 -0.18,1/18 (3.37)
KLSQSVLYEDRNKNSVA,NASTRMS,QQYHRLPLS,-0.21 -0.35 -0.16 -0.40 -0.31 -0.45,0/18
KLSQSVPYESRNKWSVA,NASTRES,QQYHRLPLS,-0.18 -0.25 -0.35 -0.48 -0.35 -0.17,1/18 (2.83)

Background: pairings of all light chain designs with three empty control strains gave a value in 4% of cases (median 2.64, 5th percentile 1.59). Values in that range, when seen in few replicates, are hard to tell from nonspecific mating. Also given: how often the same scFv was detected with the empty control strains, with their mean in brackets.
The authors averaged sequences with at least three values out of six and counted those with two or fewer as poor binders.

Data: MIT Lincoln Laboratory AlphaSeq set, Li et al. 2023, doi:10.1038/s41467-023-39022-2, as distributed in FLAb.